# Ab-14 heavy chain CDR variants: yeast mating affinities

Data: MIT Lincoln Laboratory AlphaSeq set, Li et al. 2023, doi:10.1038/s41467-023-39022-2, as distributed in FLAb.

The target is the same throughout: PDVDLGDISGINAS, from the HR2 region of SARS-CoV-2 spike.

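Phage display of a naive human antibody library on the peptide gave the parent. The variants were designed computationally from a first round of random CDR variants and then made and measured. Several design methods are mixed in this list. The assay is AlphaSeq: two haploid yeast populations carry antibody and antigen on their surface. The frequency of each diploid, read from paired DNA barcodes, reflects how well the two displayed proteins bind. A regression on co-assayed BCL2-family reference pairs converts the normalised counts of each replicate to an apparent Kd. The assay was run in six technical replicates.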

Parent scFv Ab-14: VH joined to VL by a 15-residue (Gly4Ser)3 linker. Changes lie in the heavy chain CDRs alone.
VH: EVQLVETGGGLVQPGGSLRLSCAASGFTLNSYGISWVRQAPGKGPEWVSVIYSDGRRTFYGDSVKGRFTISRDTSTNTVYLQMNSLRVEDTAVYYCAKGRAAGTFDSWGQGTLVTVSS
VL: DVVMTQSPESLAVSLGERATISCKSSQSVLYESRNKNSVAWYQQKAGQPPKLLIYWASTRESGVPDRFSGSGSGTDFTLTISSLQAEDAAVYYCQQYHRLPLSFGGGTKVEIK

Each variant is given by its three heavy chain CDRs, as the data file delimits them; those of the parent are GFTLNSYGIS, VIYSDGRRTFYGDSVK, GRAAGTFDS.
Values are log10 of the apparent Kd in nM; lower means stronger binding.
A mean of the replicates is given; it leaves out those without a signal.
"not detected" means that the variant was in the library but no mating with the target was seen in any replicate; the authors take this as a sign of poor binding, and no number exists.

"mean, log10 nM",detected,control signals,CDR-H1,CDR-H2,CDR-H3
0.04,6/6,0/18,GFDLDKYGIS,VIYADGMRKSYADKVK,GRLSGTVYI
not detected,0/6,0/18,GFTLESYGIS,VIYSDGRRTFYGDSVK,GDMAGTSTS
0.26,6/6,0/18,GFTLNDYGIS,VIYSDGRRTFYGDSVK,GKIAGTFDS
-0.12,2/6,0/18,GFTLNQYGIS,VIYSDGRRTMYGDSVK,GRAAGTFDS
2.93,1/6,0/18,GFTNNSYGIS,VIYSDGRRTYYGDSVV,GELAGTFDN
0.37,5/6,0/18,GQLLDDYGIS,VIYADGLRKAYVDEVK,GYVAGTFDM
not detected,0/6,0/18,GFNLDEYGIS,VIYADGVRKAYADKVK,GKVHWFHLQ
-0.69,6/6,0/18,GFDLNEYGIS,VIYADGMRTFYADDVK,GNTAGTFDV
0.40,6/6,0/18,GFDLNSYGIS,VIYSDGRRTFYGDSVK,GRWAGTFDS
2.37,4/6,1/18,GFTLESYGIS,VIYSDGRRTFYHDSVK,GRAAGTFDT
not detected,0/6,0/18,GFDLQEYGIS,VIYADGKRSMYTNDVK,GELGLGEVI
not detected,0/6,0/18,GFTLDSYGIS,VIYSDGRRTFYIDSVK,GQAAGTFDS
not detected,0/6,0/18,GFTLNSYGIS,VIYSDGFRTFYHDAVK,GRGAGTTDS
-0.44,6/6,0/18,GFNLDEYGIS,VIYADGRRTAYADSVK,GNVAGTFDL
0.23,6/6,0/18,GFSLNSYGIS,VIYSDGRRTFYADDVK,GNAAGTFDK
not detected,0/6,0/18,GFTLMMYGIS,VIYSDGRRTFYGDSVK,GRAAGTFDS
not detected,0/6,0/18,GFSLDEYGIS,VIYADGVRRSFIDNVK,GFNGEVSIV
2.14,1/6,0/18,GFRLNSYGIS,VIYSDGRRTGYGDNVK,GRAAGTFDS
1.37,6/6,0/18,GFTLNDYGIS,VIYSDGRRTFYIDSVK,GRGAGTFDS
1.03,6/6,2/18,DFTLNSYGIS,VIYSDGRRTAYSDSVK,GRAAGTFDS
0.19,6/6,0/18,GFDLNEYGIS,VIYADGRRTFYTDSVK,GEDAGTFDQ
1.58,4/6,0/18,GFTLNSYGIS,VIYSDGRRTFYQDSVK,GKVAGTFDS
-0.64,6/6,1/18,GFDLNEYGIS,VIYADGRRTFYDDSVK,GQLAGTFDV
0.22,6/6,3/18,GFELNSYGIS,VIYSDGRRTFYADSVK,GQTAGTFDS
0.37,6/6,0/18,FQLLDDYGIS,VIYADGKRVAYVDDVK,GNVAGTFDM
0.55,6/6,0/18,GFDLNSYGIS,VIYSDGRRTFYLDSVK,GKTAGTFDS
0.58,6/6,0/18,GFTLNEYGIS,VIYSDGRRTFYGDSVK,GRLAGTFDS
-0.86,6/6,0/18,GFSLNEYGIS,VIYSDGRRTFYADDVK,GRTAGTFDS
-0.50,6/6,0/18,GFSLNQYGIS,VIYSDGRRTFYSDSVK,GTAAGTFDS
not detected,0/6,0/18,GFSLNEYGIS,VIYSDGRRTFYGDDVK,GRAAVTFDQ
0.11,6/6,0/18,GFSLNSYGIS,VIYADGRRTFYGDSVK,GWAAGTFDS
2.71,1/6,0/18,GFDLEEYGIS,VIYADGLRQYAQDNVK,GLISGMGKT
not detected,0/6,1/18,GFDLNSYGIS,VIYSDGMRTFYGDSVK,GRAIGAFDS
-0.34,6/6,2/18,GFDLNEYGIS,VIYADGRRTFYVDSVK,GQTAGTFNV
-0.32,6/6,1/18,GFDLNEYGIS,VIYADGMRTFYADKVK,GENAGTFDV
3.19,1/6,0/18,GFTLNEYGIS,VIYSDGRRAFYTDSVK,GRSAGTFDS
1.34,6/6,0/18,GFSLNSYGIS,VIYSDGRRTFYVDSVK,GNAAGTFDS
-0.41,6/6,1/18,GFDLNEYGIS,VIYADGIRTAYADDVK,GENAGTFDV
-0.60,6/6,1/18,GFDLNEYGIS,VIYADGKRTFYSDSVK,GQNAGTFDV
0.06,6/6,0/18,GFDLNEYGIS,VIYADGRRTAYSDSVK,GEMGGTFDV
0.09,6/6,0/18,GFEIQEYGIS,VIYADGRRTAYAESVK,GTLGGTFST
0.00,6/6,0/18,GFDLDEYGIS,VIYADGRRTVYQDSVK,GQNAGTFDQ
1.77,5/6,0/18,GFSLNSYGIS,VIYSDGMRTFYGDSVK,GRAPGTFDS
not detected,0/6,0/18,GMSLGEYGIS,VIYADGERTNYVSNFK,GVHAGTFDL
-0.37,6/6,0/18,GFDLNEYGIS,VIYADGMRTSYSDSVK,GEVAGTFDV
-0.44,6/6,0/18,GFDLNEYGIS,VIYADGRRTFYSDSVK,GENAGTFDV
0.07,6/6,0/18,GFDLDEYGIS,VIYADGQRTAYADDVK,GENAGTFDT
1.07,6/6,1/18,GFQLNSYGIS,VIYSDGRRTFYGDSVK,GQTAGTFDD
-0.15,6/6,0/18,GFELNEYGIS,VIYSDGRRTFYSDSVK,GRTAGTFDS
not detected,0/6,0/18,IFTLNEYGIS,VIYGDGRRYFYGDSVK,GRAAVTFDQ
1.36,6/6,0/18,GFVLNEYGIS,VIYSDGRRTFYADSVK,GRDAGTFDS
not detected,0/6,0/18,GFDLNEYGIS,VIYADGRRTAYSDSVK,GGNAGFFDK
1.43,5/6,0/18,GFDLNSYGIS,VIYSDGRRTFYLDSVK,GRQAGTFDS
2.40,1/6,0/18,GTMVNSYGIS,VIYSDGRRTFYGDSVK,GRAAGTFDS
-0.59,5/6,0/18,GFDLDEYGIS,VIYADGRRTFYADSVK,GENAGTFDQ
2.14,5/6,0/18,GFTIESYGIS,VIYSDGRRTFYSDSVK,GRAAGTFDS
0.96,6/6,0/18,GFTLNSYGIS,VIYADGMRTFYGDDVK,GRAAGTFDS
not detected,0/6,0/18,GFTLNSYGIS,VIYSDGRRTFYTDSVK,GPAAGTFDS
-0.12,6/6,1/18,GFTLNDYGIS,VIYSDGRRTFYGDSVK,GRTAGTFDA
not detected,0/6,0/18,GFTLNEYGIS,VIYSDGRRTFYHDSVK,GRAAGAFDS
not detected,0/6,0/18,GQDINEYGIS,VIYADGMRQAYSQNVK,GNINQFDAV

Excerpt, the final 7 entries:

CDR-H1	CDR-H2	CDR-H3	mean, log10 nM	detected	control signals
GFDLDEYGIS	VIYADGRRTFYADSVK	GENAGTFDQ	-0.59	5/6	0/18
GFTIESYGIS	VIYSDGRRTFYSDSVK	GRAAGTFDS	2.14	5/6	0/18
GFTLNSYGIS	VIYADGMRTFYGDDVK	GRAAGTFDS	0.96	6/6	0/18
GFTLNSYGIS	VIYSDGRRTFYTDSVK	GPAAGTFDS	not detected	0/6	0/18
GFTLNDYGIS	VIYSDGRRTFYGDSVK	GRTAGTFDA	-0.12	6/6	1/18
GFTLNEYGIS	VIYSDGRRTFYHDSVK	GRAAGAFDS	not detected	0/6	0/18
GQDINEYGIS	VIYADGMRQAYSQNVK	GNINQFDAV	not detected	0/6	0/18

The authors averaged sequences with at least three values out of six and counted those with two or fewer as poor binders.
As a blank, each scFv also met three strains without target: over all heavy chain designs, 1% of these pairings were detected, typically at 2.08 and seldom below 0.84. Also given: how often the same scFv was detected with the empty control strains.
Values of this round are not directly comparable with the first-round values of the same sequences.
Of ten entries with the parent sequence, four were seen in most replicates (averages 0.34 to 2.37), three in one and three in none, so single entries are noisy.